Key:
[1] = molecular target: MDM2_(H. sapiens) SWIB domain (human (Homo sapiens)); test: stopped-flow fluorescence kinetics; 10°C, 20 mM sodium phosphate pH 7.4, 150 mM NaCl, 1 mM TCEP; Trp23 emission; MDM2 constant at 0.5–2 μM, p53TAD varied 1–10 μM for k on; k off from displacement of the 1 μM:1 μM complex by 10–20 μM dansylated human p53TAD peptide; K D = k off/k on
[2] = molecular target: MDM2_(H. sapiens) SWIB domain (human (Homo sapiens)); test: fluorescence polarisation; displacement: FITC-labeled human p53TAD 15–26 (6 or 10 nM) and MDM2 constant, dilution series of unlabeled peptide; K D calculated from IC50; room temperature, same buffer as the kinetics
[3] = molecular target: MDM2_(M. trossulus) SWIB domain (bay mussel (Mytilus trossulus)); test: as above

Kd [1] [nM]	koff [1] [s⁻¹]	kon [1] [M⁻¹ s⁻¹]	Kd [2] [nM]	Kd [3] [nM]	Substance
190	1.4	7.4e+06	–	–	p53TAD_(D. rerio)^N26L (peptide)
11	–	–	18	–	p53TAD_(H. sapiens)^15–26 (from UniProt P04637 15-26) (peptide)
–	–	–	–	15000	p53TAD_(M. trossulus) (peptide)

— PMC10303687
